These results are taken from ChEMBL document CHEMBL2331279, “Rational design and synthesis of 4-substituted 2-pyridin-2-ylamides with inhibitory effects on SH2 domain-containing inositol 5'-phosphatase 2 (SHIP2)” (Eur J Med Chem, 2013).

What is called IC50 is the concentration needed to halve the response being measured.

In the test the target is T1, Phosphatidylinositol 3,4,5-trisphosphate 5-phosphatase 2 (Homo sapiens, UniProt O15357).
T1 sequence (O15357 whole entry): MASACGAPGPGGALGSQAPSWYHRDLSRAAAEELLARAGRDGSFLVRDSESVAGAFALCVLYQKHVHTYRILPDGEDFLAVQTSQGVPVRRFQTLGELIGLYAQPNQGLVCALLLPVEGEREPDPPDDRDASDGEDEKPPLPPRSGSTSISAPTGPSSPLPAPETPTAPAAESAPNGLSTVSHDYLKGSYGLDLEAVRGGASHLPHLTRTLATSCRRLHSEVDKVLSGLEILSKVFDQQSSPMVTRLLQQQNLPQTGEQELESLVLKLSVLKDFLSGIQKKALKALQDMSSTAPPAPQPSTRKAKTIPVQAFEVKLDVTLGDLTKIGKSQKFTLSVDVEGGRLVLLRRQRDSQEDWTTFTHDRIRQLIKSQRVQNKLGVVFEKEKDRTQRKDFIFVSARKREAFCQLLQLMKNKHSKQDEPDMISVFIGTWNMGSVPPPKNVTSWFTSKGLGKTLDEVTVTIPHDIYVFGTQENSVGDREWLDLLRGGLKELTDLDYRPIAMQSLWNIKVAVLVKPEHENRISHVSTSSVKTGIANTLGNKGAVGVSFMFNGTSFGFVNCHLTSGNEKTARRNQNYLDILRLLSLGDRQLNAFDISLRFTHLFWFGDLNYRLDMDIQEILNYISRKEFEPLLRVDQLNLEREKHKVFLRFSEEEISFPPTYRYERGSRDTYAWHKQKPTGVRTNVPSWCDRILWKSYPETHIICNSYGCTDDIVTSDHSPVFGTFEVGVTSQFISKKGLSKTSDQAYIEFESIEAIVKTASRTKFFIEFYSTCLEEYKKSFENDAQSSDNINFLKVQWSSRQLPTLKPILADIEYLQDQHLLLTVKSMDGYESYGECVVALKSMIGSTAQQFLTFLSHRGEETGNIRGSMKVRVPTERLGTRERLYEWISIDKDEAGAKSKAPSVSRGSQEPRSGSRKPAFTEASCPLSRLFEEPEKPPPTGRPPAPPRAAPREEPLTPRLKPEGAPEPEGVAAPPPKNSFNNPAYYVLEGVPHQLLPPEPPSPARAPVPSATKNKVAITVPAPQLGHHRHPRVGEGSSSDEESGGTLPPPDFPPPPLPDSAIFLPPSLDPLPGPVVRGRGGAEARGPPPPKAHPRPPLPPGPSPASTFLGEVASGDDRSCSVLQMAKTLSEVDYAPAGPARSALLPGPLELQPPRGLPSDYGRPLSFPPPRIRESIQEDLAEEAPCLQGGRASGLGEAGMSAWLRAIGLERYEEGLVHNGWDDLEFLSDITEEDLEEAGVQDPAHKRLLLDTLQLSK
The experiment in a line: Inhibition of SHIP2 (unknown origin).

For `C[C@H](NC(=O)c1sccc1OCc1ccc(Cl)cc1)c1ccccc1`, the IC50 turned out to be 620 nM.
